# In PMC10051910 (Marine Drugs, 2023):
# Assays:
# [1] = system: COMI glioblastoma stem cell line; assay: GI50 growth inhibition, viable cell count (Hoechst 33342/PI), 48 h; assay type: cell-based, Human
# [2] = system: G144 glioblastoma stem cell line; assay: as above; assay type: cell-based, Human
# [3] = system: G166 glioblastoma stem cell line; assay: as above; assay type: cell-based, Human
# [4] = system: GB6 glioblastoma stem cell line; assay: as above; assay type: cell-based, Human
# [5] = system: GB7 glioblastoma stem cell line; assay: as above; assay type: cell-based, Human
# [6] = system: GB8 glioblastoma stem cell line; assay: as above; assay type: cell-based, Human
# [7] = system: GSC#1 glioblastoma stem cell line; assay: as above; assay type: cell-based, Human
# [8] = system: GSC#151 glioblastoma stem cell line; assay: as above; assay type: cell-based, Human
# [9] = system: VIPI glioblastoma stem cell line; assay: as above; assay type: cell-based, Human
# [10] = system: ARPE-19 retinal pigmented epithelium cell line; assay: GI50 growth inhibition on non-tumor cell line, 48 h; assay type: cell-based, Human; conditions: for Selectivity index (SI) value range: GI50 ARPE-19 / GI50 of GSC lines, range over nine GSC lines
# [11] = system: Hs68 foreskin fibroblast cell line; assay: as above; assay type: cell-based, Human; conditions: for Selectivity index (SI) value range: GI50 Hs68 / GI50 of GSC lines, range over nine GSC lines
# [12] = system: MCF10A breast epithelium cell line; assay: as above; assay type: cell-based, Human; conditions: for Selectivity index (SI) value range: GI50 MCF10A / GI50 of GSC lines, range over nine GSC lines
# [13] = system: hTERT-HPNE pancreatic duct cell line; assay: as above; assay type: cell-based, Human; conditions: for Selectivity index (SI) value range: GI50 hTERT-HPNE / GI50 of GSC lines, range over nine GSC lines
# COMI cells [14] = assay: GI50 on COMI cells under normoxic or hypoxic conditions; assay type: cell-based, Human; conditions: Normoxia (21% oxygen), 48 h, mean ± SEM, n = 6
# COMI gliomaspheres = assay: Gliomasphere 3D model cytotoxicity (Calcein AM/SYTOX Red, CellTiter-Glo 3D); assay type: cell-based, Human; conditions: 4 days treatment
# COMI cells [15] = assay: Western blot for apoptosis and cell cycle markers; assay type: cell-based, Human
# [16] = system: panel of nine patient-derived GSC lines; assay: GI50 growth inhibition over the GSC line panel; assay type: cell-based, Human
# [17] = system: U87 glioblastoma cell line; conditions: read-out: IC50 antiproliferative activity, synthetic arsenicin A; cited from earlier work
smiles,measurement,setting,value
CC1[As]2O[As]3O[As]1O[As](O2)C3C (stereo not shown),Ratio GI50 ATO / GI50 alkyl polyarsenical,[1],6.2
same,Ratio GI50 ATO / GI50 alkyl polyarsenical,[2],6.5
same,Ratio GI50 ATO / GI50 alkyl polyarsenical,[3],2.7
same,Ratio GI50 ATO / GI50 alkyl polyarsenical,[4],2.7
same,Ratio GI50 ATO / GI50 alkyl polyarsenical,[5],15.0
same,Ratio GI50 ATO / GI50 alkyl polyarsenical,[6],2.7
same,Ratio GI50 ATO / GI50 alkyl polyarsenical,[7],3.2
same,Ratio GI50 ATO / GI50 alkyl polyarsenical,[8],6.5
same,Ratio GI50 ATO / GI50 alkyl polyarsenical,[9],3.7
same,Selectivity Index (SI),[10]; GI50 ARPE-19 / GI50 COMI,14.6
same,Selectivity Index (SI),[10]; GI50 ARPE-19 / GI50 G144,6.6
same,Selectivity Index (SI),[10]; GI50 ARPE-19 / GI50 G166,1.5
same,Selectivity Index (SI),[10]; GI50 ARPE-19 / GI50 GB6,2
same,Selectivity Index (SI),[10]; GI50 ARPE-19 / GI50 GB7,24.3
same,Selectivity Index (SI),[10]; GI50 ARPE-19 / GI50 GB8,1.6
same,Selectivity Index (SI),[10]; GI50 ARPE-19 / GI50 GSC#1,3.3
same,Selectivity Index (SI),[10]; GI50 ARPE-19 / GI50 GSC#151,3.5
same,Selectivity Index (SI),[10]; GI50 ARPE-19 / GI50 VIPI,1.8
same,Selectivity index (SI) value range,[10],1.5 to 24.3
same,Selectivity Index (SI),[11]; GI50 Hs68 / GI50 COMI,51.9
same,Selectivity Index (SI),[11]; GI50 Hs68 / GI50 G144,23.6
same,Selectivity Index (SI),[11]; GI50 Hs68 / GI50 G166,5.3
same,Selectivity Index (SI),[11]; GI50 Hs68 / GI50 GB6,7.1
same,Selectivity Index (SI),[11]; GI50 Hs68 / GI50 GB7,86.4
same,Selectivity Index (SI),[11]; GI50 Hs68 / GI50 GB8,5.8
same,Selectivity Index (SI),[11]; GI50 Hs68 / GI50 GSC#1,11.8
same,Selectivity Index (SI),[11]; GI50 Hs68 / GI50 GSC#151,12.5
same,Selectivity Index (SI),[11]; GI50 Hs68 / GI50 VIPI,6.5
same,Selectivity index (SI) value range,[11],5.3 to 86.4
same,Selectivity Index (SI),[12]; GI50 MCF10A / GI50 COMI,16.9
same,Selectivity Index (SI),[12]; GI50 MCF10A / GI50 G144,7.7
same,Selectivity Index (SI),[12]; GI50 MCF10A / GI50 G166,1.7
same,Selectivity Index (SI),[12]; GI50 MCF10A / GI50 GB6,2.3
same,Selectivity Index (SI),[12]; GI50 MCF10A / GI50 GB7,28.2
same,Selectivity Index (SI),[12]; GI50 MCF10A / GI50 GB8,1.9
same,Selectivity Index (SI),[12]; GI50 MCF10A / GI50 GSC#1,3.8
same,Selectivity Index (SI),[12]; GI50 MCF10A / GI50 GSC#151,4.1
same,Selectivity Index (SI),[12]; GI50 MCF10A / GI50 VIPI,2.1
same,Selectivity index (SI) value range,[12],1.7 to 28.2
same,Selectivity Index (SI),[13]; GI50 hTERT-HPNE / GI50 COMI,20.8
same,Selectivity Index (SI),[13]; GI50 hTERT-HPNE / GI50 G144,9.5
same,Selectivity Index (SI),[13]; GI50 hTERT-HPNE / GI50 G166,2.1
same,Selectivity Index (SI),[13]; GI50 hTERT-HPNE / GI50 GB6,2.8
same,Selectivity Index (SI),[13]; GI50 hTERT-HPNE / GI50 GB7,34.7
same,Selectivity Index (SI),[13]; GI50 hTERT-HPNE / GI50 GB8,2.3
same,Selectivity Index (SI),[13]; GI50 hTERT-HPNE / GI50 GSC#1,4.7
same,Selectivity Index (SI),[13]; GI50 hTERT-HPNE / GI50 GSC#151,5
same,Selectivity Index (SI),[13]; GI50 hTERT-HPNE / GI50 VIPI,2.6
same,Selectivity index (SI) value range,[13],2.1 to 34.7
same,GI50,COMI cells [14],150 nM
same,concentration that disrupts already formed gliomaspheres,COMI gliomaspheres,around 0.3 µM
same,time at which apoptotic activity peaks,COMI cells [15]; 0.2 μM,48 h
same,time at which apoptotic activity starts,COMI cells [15]; 0.2 μM,36 h
same,concentration at which apoptosis induction peaks,"COMI cells [15]; 48 h, 0.05, 0.1, 0.2 and 0.4 μM tested",0.2 µM
same,apoptosis induction (cleaved caspase 3 and cleaved PARP levels),"COMI cells [15]; 48 h, concentrations around and above GI50, immunoblotting",strong apoptotic signal
same,p53 activation,"COMI cells [15]; 48 h, immunoblotting",very slight
same,GI50,"[16]; read-out: GI50 values range on the GSC lines tested, 48 h",90 to 1460 nM
C1[As]2C[As]3O[As]1C[As](O2)O3,IC50,[17],200 nM
CCCC1[As]2O[As]3O[As]1O[As](O2)C3CCC (stereo not shown),Ratio GI50 ATO / GI50 alkyl polyarsenical,[1],23.2
same,Ratio GI50 ATO / GI50 alkyl polyarsenical,[2],26.9
same,Ratio GI50 ATO / GI50 alkyl polyarsenical,[3],16.5
same,Ratio GI50 ATO / GI50 alkyl polyarsenical,[4],8.7
same,Ratio GI50 ATO / GI50 alkyl polyarsenical,[5],27.0
same,Ratio GI50 ATO / GI50 alkyl polyarsenical,[6],13.0
same,Ratio GI50 ATO / GI50 alkyl polyarsenical,[7],11.7
same,Ratio GI50 ATO / GI50 alkyl polyarsenical,[8],23.5
same,Ratio GI50 ATO / GI50 alkyl polyarsenical,[9],24.3
same,Selectivity Index (SI),[10]; GI50 ARPE-19 / GI50 COMI,13.5
same,Selectivity Index (SI),[10]; GI50 ARPE-19 / GI50 G144,6.8
same,Selectivity Index (SI),[10]; GI50 ARPE-19 / GI50 G166,2.3
same,Selectivity Index (SI),[10]; GI50 ARPE-19 / GI50 GB6,1.6
same,Selectivity Index (SI),[10]; GI50 ARPE-19 / GI50 GB7,10.8
same,Selectivity Index (SI),[10]; GI50 ARPE-19 / GI50 GB8,1.9
same,Selectivity Index (SI),[10]; GI50 ARPE-19 / GI50 GSC#1,3
same,Selectivity Index (SI),[10]; GI50 ARPE-19 / GI50 GSC#151,3.2
same,Selectivity Index (SI),[10]; GI50 ARPE-19 / GI50 VIPI,3
same,Selectivity index (SI) value range,[10],1.6 to 13.5
same,Selectivity Index (SI),[11]; GI50 Hs68 / GI50 COMI,107
same,Selectivity Index (SI),[11]; GI50 Hs68 / GI50 G144,53.6
same,Selectivity Index (SI),[11]; GI50 Hs68 / GI50 G166,17.9
same,Selectivity Index (SI),[11]; GI50 Hs68 / GI50 GB6,12.6
same,Selectivity Index (SI),[11]; GI50 Hs68 / GI50 GB7,85.8
same,Selectivity Index (SI),[11]; GI50 Hs68 / GI50 GB8,15.3
same,Selectivity Index (SI),[11]; GI50 Hs68 / GI50 GSC#1,23.8
same,Selectivity Index (SI),[11]; GI50 Hs68 / GI50 GSC#151,25.2
same,Selectivity Index (SI),[11]; GI50 Hs68 / GI50 VIPI,23.8
same,Selectivity index (SI) value range,[11],12.6 to 107
same,Selectivity Index (SI),[12]; GI50 MCF10A / GI50 COMI,13.3
same,Selectivity Index (SI),[12]; GI50 MCF10A / GI50 G144,6.6
same,Selectivity Index (SI),[12]; GI50 MCF10A / GI50 G166,2.2
same,Selectivity Index (SI),[12]; GI50 MCF10A / GI50 GB6,1.6
same,Selectivity Index (SI),[12]; GI50 MCF10A / GI50 GB7,10.6
same,Selectivity Index (SI),[12]; GI50 MCF10A / GI50 GB8,1.9
same,Selectivity Index (SI),[12]; GI50 MCF10A / GI50 GSC#1,2.9
same,Selectivity Index (SI),[12]; GI50 MCF10A / GI50 GSC#151,3.1
same,Selectivity Index (SI),[12]; GI50 MCF10A / GI50 VIPI,2.9
same,Selectivity index (SI) value range,[12],1.6 to 13.3
same,Selectivity Index (SI),[13]; GI50 hTERT-HPNE / GI50 COMI,43.8
same,Selectivity Index (SI),[13]; GI50 hTERT-HPNE / GI50 G144,21.9
same,Selectivity Index (SI),[13]; GI50 hTERT-HPNE / GI50 G166,7.3
same,Selectivity Index (SI),[13]; GI50 hTERT-HPNE / GI50 GB6,5.1
same,Selectivity Index (SI),[13]; GI50 hTERT-HPNE / GI50 GB7,35
same,Selectivity Index (SI),[13]; GI50 hTERT-HPNE / GI50 GB8,6.3
same,Selectivity Index (SI),[13]; GI50 hTERT-HPNE / GI50 GSC#1,9.7
same,Selectivity Index (SI),[13]; GI50 hTERT-HPNE / GI50 GSC#151,10.3
same,Selectivity Index (SI),[13]; GI50 hTERT-HPNE / GI50 VIPI,9.7
same,Selectivity index (SI) value range,[13],5.1 to 43.8
same,GI50,COMI cells [14],40 nM
same,fold greater potency than ATO on the GSC line panel,[16]; range over nine GSC lines,8.7–27 fold
